# Measured values taken from PMC9962186, “Metal–Peptide Complexes with Antimicrobial Potential for Cotton Fiber Protection” (Journal of Functional Biomaterials, 2023).
# System: HEp-2 cells
# Experiment: Cytotoxicity assay (neutral red uptake)
# Assay type: cell-based
# Details: HEp-2 monolayer cells, 48 h, 37 °C, 5% CO2, neutral red uptake, OD 540 nm
smiles,measurement,value
NC(=O)c1ncn([C@@H]2O[C@H](CO)[C@@H](O)[C@H]2O)n1 [Ribavirin],"Cytotoxicity CC50 in HEp-2 Cells (Cu-Peptide, and reference ribavirin)",2058 µM/mL
